Assays:
Mu-type opioid receptor = Mu-type opioid receptor (Homo sapiens, UniProt P35372); assay: Binding Assay
Nociceptin receptor = Nociceptin receptor (Homo sapiens, UniProt P41146); assay: Binding Assay; conditions: pH 7.4

Amino acid sequences for entries named in this document (tags omitted).
UniProt P35372, whole entry: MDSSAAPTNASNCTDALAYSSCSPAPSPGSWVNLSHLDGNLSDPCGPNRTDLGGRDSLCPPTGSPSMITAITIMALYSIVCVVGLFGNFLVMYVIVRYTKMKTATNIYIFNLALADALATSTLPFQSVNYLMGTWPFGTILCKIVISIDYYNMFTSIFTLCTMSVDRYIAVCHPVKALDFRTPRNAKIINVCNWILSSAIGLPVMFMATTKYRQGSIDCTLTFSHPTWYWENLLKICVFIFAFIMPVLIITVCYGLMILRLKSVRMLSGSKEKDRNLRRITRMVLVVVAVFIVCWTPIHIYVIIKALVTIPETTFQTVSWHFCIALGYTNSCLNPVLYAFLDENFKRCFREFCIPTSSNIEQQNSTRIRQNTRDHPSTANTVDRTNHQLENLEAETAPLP
UniProt P41146, whole entry: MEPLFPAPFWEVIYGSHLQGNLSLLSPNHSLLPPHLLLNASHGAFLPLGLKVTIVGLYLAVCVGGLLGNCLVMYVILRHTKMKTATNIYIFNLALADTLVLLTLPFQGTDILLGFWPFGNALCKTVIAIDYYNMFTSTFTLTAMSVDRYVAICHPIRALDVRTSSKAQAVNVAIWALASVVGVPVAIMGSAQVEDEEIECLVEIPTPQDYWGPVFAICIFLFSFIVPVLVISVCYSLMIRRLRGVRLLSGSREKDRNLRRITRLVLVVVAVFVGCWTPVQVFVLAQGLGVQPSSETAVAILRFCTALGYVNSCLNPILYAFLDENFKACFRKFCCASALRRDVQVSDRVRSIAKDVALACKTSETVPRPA

Row | Compound | Ki (Mu-type opioid receptor) [nM] | Ki (Nociceptin receptor) [nM]
1 | CNC1(c2ccccc2)CCC2(CC1)OCCc1c2[nH]c2ccc(F)cc12 (centres undefined) | 6.8 | 10
2 | CNC1(c2ccccc2)CCC2(CC1)OCCc1c2[nH]c2ccccc12 (centres undefined) | 1.2 | 1.4
